Measurements as given in the NIST ThermoML archive (doi:10.1021/je900916e).

Assay: cn = amount concentration of the nth substance listed, in mol/dm3
Conditions: 101 kPa, Liquid, Advanced Conductivity Orion 162A

CCC[N+](CCC)(CCC)CCC.O=C([O-])C(F)(F)C(F)(F)C(F)(F)C(F)(F)C(F)(F)C(F)(F)C(F)(F)F [tetrapropylammonium perfluorooctanoate] + O
Conditions	electrical conductivity [S/m]
288.15 K, c1 = 0.000528	0.00204
288.15 K, c1 = 0.001044	0.00381
288.15 K, c1 = 0.00155	0.0055
288.15 K, c1 = 0.002046	0.00718
288.15 K, c1 = 0.002532	0.00868
288.15 K, c1 = 0.003008	0.01018
288.15 K, c1 = 0.003474	0.01159
288.15 K, c1 = 0.003931	0.01294
288.15 K, c1 = 0.00438	0.01384
288.15 K, c1 = 0.004819	0.01423
288.15 K, c1 = 0.00525	0.01452
288.15 K, c1 = 0.005674	0.01478
288.15 K, c1 = 0.006192	0.01508
288.15 K, c1 = 0.006697	0.01536
288.15 K, c1 = 0.007289	0.01569
288.15 K, c1 = 0.007865	0.01602
288.15 K, c1 = 0.008563	0.0164
288.15 K, c1 = 0.009239	0.01676
293.15 K, c1 = 0.000528	0.0023
293.15 K, c1 = 0.001044	0.00429
293.15 K, c1 = 0.00155	0.00632
293.15 K, c1 = 0.002046	0.00818
293.15 K, c1 = 0.002532	0.00994
293.15 K, c1 = 0.003008	0.01165
293.15 K, c1 = 0.003474	0.01327
293.15 K, c1 = 0.003931	0.01471
293.15 K, c1 = 0.00438	0.01537
293.15 K, c1 = 0.004819	0.01577
293.15 K, c1 = 0.00525	0.01611
293.15 K, c1 = 0.005674	0.0164
293.15 K, c1 = 0.006089	0.01668
293.15 K, c1 = 0.006597	0.01702
293.15 K, c1 = 0.007094	0.01735
293.15 K, c1 = 0.007675	0.01772
293.15 K, c1 = 0.00824	0.01806
293.15 K, c1 = 0.008791	0.0184
298.15 K, c1 = 0.000495	0.0024
298.15 K, c1 = 0.00098	0.00458
298.15 K, c1 = 0.001456	0.00662
298.15 K, c1 = 0.001923	0.00856
298.15 K, c1 = 0.002381	0.01055
298.15 K, c1 = 0.00283	0.01231
298.15 K, c1 = 0.003271	0.0142
298.15 K, c1 = 0.003704	0.01594
298.15 K, c1 = 0.004128	0.017
298.15 K, c1 = 0.004545	0.01751
298.15 K, c1 = 0.004955	0.01791
298.15 K, c1 = 0.005357	0.01828
298.15 K, c1 = 0.005752	0.01864
298.15 K, c1 = 0.00614	0.01894
298.15 K, c1 = 0.006522	0.01924
298.15 K, c1 = 0.006989	0.0196
298.15 K, c1 = 0.007447	0.01995
298.15 K, c1 = 0.007895	0.0203
298.15 K, c1 = 0.008333	0.02064
298.15 K, c1 = 0.008762	0.02098
298.15 K, c1 = 0.009182	0.0213
303.15 K, c1 = 0.000528	0.00301
303.15 K, c1 = 0.001044	0.00562
303.15 K, c1 = 0.00155	0.008
303.15 K, c1 = 0.002046	0.01044
303.15 K, c1 = 0.002532	0.01274
303.15 K, c1 = 0.003008	0.01498
303.15 K, c1 = 0.003474	0.01705
303.15 K, c1 = 0.003931	0.01837
303.15 K, c1 = 0.00438	0.01898
303.15 K, c1 = 0.004819	0.01954
303.15 K, c1 = 0.00525	0.01997
303.15 K, c1 = 0.005674	0.0204
303.15 K, c1 = 0.006294	0.0209
303.15 K, c1 = 0.006896	0.0214
303.15 K, c1 = 0.007579	0.022
303.15 K, c1 = 0.00824	0.0226
303.15 K, c1 = 0.008882	0.0231
303.15 K, c1 = 0.00959	0.0236
308.15 K, c1 = 0.000528	0.00324
308.15 K, c1 = 0.001044	0.00611
308.15 K, c1 = 0.00155	0.00888
308.15 K, c1 = 0.002046	0.01161
308.15 K, c1 = 0.002532	0.01414
308.15 K, c1 = 0.003008	0.01657
308.15 K, c1 = 0.003474	0.01894
308.15 K, c1 = 0.003931	0.0203
308.15 K, c1 = 0.00438	0.021
308.15 K, c1 = 0.004819	0.0215
308.15 K, c1 = 0.005357	0.0221
308.15 K, c1 = 0.005882	0.0227
308.15 K, c1 = 0.006496	0.0234
308.15 K, c1 = 0.007094	0.0239
308.15 K, c1 = 0.00777	0.0245
308.15 K, c1 = 0.008426	0.0252
308.15 K, c1 = 0.00915	0.0259
313.15 K, c1 = 0.000434	0.00302
313.15 K, c1 = 0.00086	0.00567
313.15 K, c1 = 0.001279	0.00818
313.15 K, c1 = 0.001691	0.01052
313.15 K, c1 = 0.002096	0.01293
313.15 K, c1 = 0.002494	0.01538
313.15 K, c1 = 0.002886	0.0176
313.15 K, c1 = 0.003271	0.01978
313.15 K, c1 = 0.00365	0.0218
313.15 K, c1 = 0.004023	0.0228
313.15 K, c1 = 0.00439	0.0234
313.15 K, c1 = 0.004751	0.024
313.15 K, c1 = 0.005257	0.0245
313.15 K, c1 = 0.005752	0.0251
313.15 K, c1 = 0.006332	0.0258
313.15 K, c1 = 0.006896	0.0265
313.15 K, c1 = 0.007447	0.0271
313.15 K, c1 = 0.008071	0.0276
318.15 K, c1 = 0.000495	0.00372
318.15 K, c1 = 0.00098	0.00708
318.15 K, c1 = 0.001456	0.01024
318.15 K, c1 = 0.001923	0.01335
318.15 K, c1 = 0.002381	0.01634
318.15 K, c1 = 0.00283	0.01918
318.15 K, c1 = 0.003271	0.0219
318.15 K, c1 = 0.003704	0.0243
318.15 K, c1 = 0.004128	0.0256
318.15 K, c1 = 0.004545	0.0263
318.15 K, c1 = 0.004955	0.0268
318.15 K, c1 = 0.005456	0.0276
318.15 K, c1 = 0.006044	0.0285
318.15 K, c1 = 0.006616	0.0291
318.15 K, c1 = 0.007173	0.0298
318.15 K, c1 = 0.007806	0.0306
318.15 K, c1 = 0.008506	0.0314
